Data as given in patent publication US7365194B2, “Dimer of phenazine-1-carboxylic acid and to the process of preparation thereof” (Pondicherry University and Department of Biotechnology, priority 2004, dated 2008).

Test system: cell lines
Experiment: MTT cytotoxicity assay
Assay type: cell-based
Details: 24 hr at 37° C.
Protocol: (§1) Dimer of phenazine-1-carboxylic acid natural product was tested for cytotoxycity using 3-(4,5-dimethylthiazol-2-yl)-2,5-diphenyltetrazolium bromide (MTT) assay. The cells (3×10^3/well) were cultured in 96-well plates with different concentrations of dimer of phenazine-1-carboxylic acid natural product (1-50 μg) for 24 hr at 37° C. At the end of incubation, 20 μL MTT (5 mg/mL) was added and cells were incubated at 37° C. After 4 hr, MTT was removed and 100 μL of DMSO was added. Cell viability was determined by measuring the absorbance at a test wavelength of 570 nm.
as §1, with “Cytotoxycity of dimer” for “Dimer”, “product against cell lines” for “product”, “determined by MTT” for “tested for cytotoxycity using 3-(4,5-dimethylthiazol-2-yl)-2,5-diphenyltetrazolium bromide (MTT)”, “For MTT assay, the” for “The”, “product” for “product (1-50 μg)”

## dimer of phenazine-1-carboxylic acid
Concentration 1 (1-50 μg)
  Cell viability (%): 45.03%
Concentration 10 (1-50 μg)
  Cell viability (%): 40.03%
Concentration 25 (1-50 μg)
  Cell viability (%): 31.07%
Concentration 50 (1-50 μg)
  Cell viability (%): 24.17%
